Assay results published in publication PMC6152727, “Potential of Icariin Metabolites from Epimedium koreanum Nakai as Antidiabetic Therapeutic Agents” (Molecules : A Journal of Synthetic Chemistry and Natural …, 2017).

Key:
human recombinant PTP1B [1] = biological target: T1, human recombinant PTP1B (Homo sapiens, UniProt P18031); experiment: PTP1B activity assay (pNPP substrate); format: biochemical; conditions: read-out: PTP1B IC50; mean ± SEM of triplicate experiments
T1 construct: purchased Biomol International LP (Plymouth Meeting, PA, USA)
T1 sequence (P18031 1-435): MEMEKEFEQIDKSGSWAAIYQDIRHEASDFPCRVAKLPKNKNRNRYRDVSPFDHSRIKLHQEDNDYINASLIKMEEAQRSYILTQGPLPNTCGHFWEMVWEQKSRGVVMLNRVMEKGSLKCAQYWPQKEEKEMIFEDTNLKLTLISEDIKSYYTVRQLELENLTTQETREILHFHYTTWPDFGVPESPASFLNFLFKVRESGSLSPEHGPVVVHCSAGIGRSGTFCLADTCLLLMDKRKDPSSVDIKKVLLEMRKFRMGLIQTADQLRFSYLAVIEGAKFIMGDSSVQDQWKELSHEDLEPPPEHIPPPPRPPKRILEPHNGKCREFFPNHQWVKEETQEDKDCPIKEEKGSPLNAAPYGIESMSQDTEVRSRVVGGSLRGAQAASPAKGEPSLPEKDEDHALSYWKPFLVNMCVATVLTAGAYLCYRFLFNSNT
Protocol: The abilities of the aerial parts of E. koreanum and their constituents to inhibit human recombinant PTP1B activity were evaluated using pNPP as a substrate. […] After incubation at 37 °C for 20 min in the dark, the reaction was terminated by addition of 10 M NaOH. The amount of p-nitrophenylate produced by enzymatic dephosphorylation of pNPP was determined by measuring the absorbance at 405 nm using a microplate spectrophotometer (Molecular Devices). Non-enzymatic dephosphorylation of pNPP was corrected by measuring the increase in absorbance at 405 nm obtained in the absence of PTP1B. […] The percent inhibition was calculated as {(AC − AS)/AC} × 100, where AC is the absorbance of the control, and AS is the absorbance of the sample. The IC50 is expressed as the mean ± SEM of triplicate experiments.

human recombinant PTP1B [2] = biological target: T1, human recombinant PTP1B; experiment: Enzyme kinetics analysis of PTP1B (Lineweaver–Burk and Dixon plots); format: biochemical; conditions: determined by the Dixon plot
Protocol: The inhibition type and inhibition constant (Ki) of the two compounds were determined using Lineweaver–Burk and Dixon plots. Each line of the inhibitors penetrate the same point at the x-intercept, indicating noncompetitive-type inhibition, and the x-axis represent-Kiwhen 1/V = 0. Therefore, icaritin and icariside II are noncompetitive-type inhibitors of PTP1B (Figure 3). The Dixon plot is an established method for determining the enzyme inhibition type and the Ki value for an enzyme-inhibitor complex, where the value of the x-axis indicates Ki.
In order to determine the inhibition mechanism, two complementary kinetics methods were used: Lineweaver–Burk and Dixon plots. The level of enzymatic inhibition at various concentrations of test sample was evaluated by monitoring the effect of different substrate concentrations in Dixon plots (single reciprocal plots). Dixon plots for PTP1B inhibition were obtained in the presence of different concentrations of pNPP. Using Lineweaver–Burk plots (double reciprocal plots), the inhibition modes of the compounds were determined at various concentrations of pNPP with different concentrations of compounds. The enzymatic procedures were the same as for the PTP1B assay methods. The types of inhibition were investigated by interpreting the Dixon plots, in which the value of the x-axis indicates Ki.

How did the IC50 (human recombinant PTP1B [1]) turn out when icariside II was run?
The IC50 was 9.94 ± 0.15 µM.

And the Ki (human recombinant PTP1B [2])?
The Ki was 11.7 µM.
